Experimental data as given in patent US5091547A, “Phenylacetic acid derivative and process for making same” (priority 1989, dated 1992).

What was measured:
[1] = test system: ulcers induced by absolute ethanol; assay: Protective activity, ulcers induced by absolute ethanol; assay type: in vivo, rats; conditions: LV-216 11 mg/kg; sodium salt at equimolecular dose; control 86.3 ± 9.4
Description: As explained previously, the compound of formula (I), which shall henceforth be referred to herein as LV-216, combines the advantage of anti-inflammatory and protective action.
Using the experimental model of ulcers induced by absolute ethanol described by Rober et al (Gastroenterology, 77: 433, 1979) the cytoprotective activity of LV-216 was compared with that of 2-(2,6-dichloroaniline)-phenylacetic acid at equimolecular doses and with a control group that was given only excipient.

[2] = test system: ulcerous lesions in the stomach and intestine; assay: Comparative ulcerogenic action, macroscopic lesion indices (Adami's criterion); assay type: in vivo, Female Wistar rats
Procedure: Group I: control (excipient) (n=8)
Group II: sodium salt 10 mg/kg (n=8)
Group IV: sodium salt 10 mg/kg+zinc sulphate 2.5 mg/kg (n=8) (equivalent doses).
The products were administered orally every day for four consecutive days. The animals were given no food during the 24 hours prior to the last dose.

[3] = Water solubility; assay type: physicochemical; conditions: both anhydrous and hydrated form

**Q.** For “zinc compound of 2-(2,6-dichloroaniline)-phenylacetic acid [LV-216]”, which “mm lesion (lesion index)” value [1] is on record?
**A.** 36.1 ± 8.9 mm

**Q.** And the “Macroscopic lesion index (x ± e)” value ([2]; oral, daily for four consecutive days, SS 10 mg/kg, LV-216 11 mg/kg, SS 10 mg/kg + zinc sulphate 2.5 mg/kg, n=8, control 0.4 ± 0.2)?
**A.** 1.1 ± 0.3 and 1.1

**Q.** What about the “ulcerous index versus control (in words)” value ([2]; versus control) of the same substance?
**A.** not significant versus the control

**Q.** And the “t vs SS (lesion index)” value ([2]; versus sodium salt)?
**A.** *** (p < 0.001)

**Q.** What about the “Water solubility (in words)” value [3] of the same substance?
**A.** extremely water-insoluble

“And” between values parts separate entries of the source, which are not always exact repeats. Equal values may be shown once.
